From PubChem BioAssay (NCI)
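Method: 48-hour compound exposure of cells in 96-well plates, five concentrations, linear interpolation of endpoints. GI50 is the concentration that inhibits growth by half.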

Assays:
Test in all cases: growth of human tumour cells (NCI), 48 h; in the data active means GI50 below about 0.43 µM; inactive means the rest
[1] = system: ACHN renal
[2] = system: DU-145 prostate
[3] = system: U251 CNS

Measured: GI50

CC1=C[C@H]2O[C@@H]3[C@H](O)[C@@H](O)[C@](C)(C2(COC(=O)CCl)CC1)[C@@]31CO1 (stereo partly drawn)
inactive: [1] 1.65 µM | [2] 1.84 µM | [3] 0.482 µM
